This data set concerns UVB-induced wrinkle formation. Description: Topical alpha-ketoglutarate on UVB-induced wrinkle formation.

SMILES strings stand for the structures.

As to `O=C(O)CCC(=O)C(=O)O` [alpha-ketoglutarate], the skin irritation result is “irritating”.

Values taken from patent US11458114B2, “Methods and compositions for enhancing synthesis secretion and transport of collagen to increase wound strength” (NORTH CELL PHARMACEUTICALS, INC., priority 2020, dated 2022).
